Measurements as given in BindingDB's records for doi:10.3109/14756366.2011.643303 (Ondokuz Mayis University, 2013).

Chains of the proteins cited; added tags and fusions are not shown. Lines headed by an entry give the natural chain unless they say otherwise; changes in a name come on top.
UniProt P22748: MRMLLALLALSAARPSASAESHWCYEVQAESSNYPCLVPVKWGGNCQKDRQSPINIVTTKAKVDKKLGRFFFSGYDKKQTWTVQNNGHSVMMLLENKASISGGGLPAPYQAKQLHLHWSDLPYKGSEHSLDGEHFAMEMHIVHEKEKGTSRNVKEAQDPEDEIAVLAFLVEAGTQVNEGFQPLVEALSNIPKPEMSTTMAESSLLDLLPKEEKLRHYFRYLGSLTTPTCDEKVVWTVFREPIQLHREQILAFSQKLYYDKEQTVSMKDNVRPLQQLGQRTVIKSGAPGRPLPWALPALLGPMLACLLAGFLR

Target: Carbonic anhydrase 4 (Homo sapiens, UniProt P22748)
Assay: Esterase Activity Assay
Conditions: pH 7.4

`Oc1ccccc1O` [1,2-Dihydroxybenzene, XI] gave a Ki of 11.9 µM.
